Values after ≈ are worked out from the molar mass of the structure shown.
Key:
[1] = molecular target: porcine pancreatic lipase (Sus scrofa, UniProt P00591); experiment: Anti-lipase activity (PNPB hydrolysis); assay type: biochemical; details: five dilutions 40, 100, 200, 300, 400 µg/ml; orlistat positive control
[2] = molecular target: porcine pancreatic amylase enzyme (Sus scrofa, UniProt P00690); experiment: α-Amylase inhibitory activity (DNSA method); details: five concentrations 1, 10, 50, 100, 500 µg/ml; acarbose positive control

Sequences of proteins named here, by UniProt entry; tags and fusion partners are left off. Residues count along the entry.
UniProt P00591, whole entry: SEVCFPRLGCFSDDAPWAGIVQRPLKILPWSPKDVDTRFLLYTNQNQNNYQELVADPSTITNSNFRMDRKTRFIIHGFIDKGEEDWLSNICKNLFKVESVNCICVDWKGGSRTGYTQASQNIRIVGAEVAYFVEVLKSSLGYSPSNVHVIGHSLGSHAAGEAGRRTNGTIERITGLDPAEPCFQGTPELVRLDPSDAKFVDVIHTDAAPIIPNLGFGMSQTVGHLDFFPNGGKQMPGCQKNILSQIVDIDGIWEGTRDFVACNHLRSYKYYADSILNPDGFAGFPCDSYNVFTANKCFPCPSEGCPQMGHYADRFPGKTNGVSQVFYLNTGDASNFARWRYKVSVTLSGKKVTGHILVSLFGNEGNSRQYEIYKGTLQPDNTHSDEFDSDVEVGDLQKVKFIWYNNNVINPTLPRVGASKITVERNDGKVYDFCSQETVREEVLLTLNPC
UniProt P00690, 16-511 limits assumed: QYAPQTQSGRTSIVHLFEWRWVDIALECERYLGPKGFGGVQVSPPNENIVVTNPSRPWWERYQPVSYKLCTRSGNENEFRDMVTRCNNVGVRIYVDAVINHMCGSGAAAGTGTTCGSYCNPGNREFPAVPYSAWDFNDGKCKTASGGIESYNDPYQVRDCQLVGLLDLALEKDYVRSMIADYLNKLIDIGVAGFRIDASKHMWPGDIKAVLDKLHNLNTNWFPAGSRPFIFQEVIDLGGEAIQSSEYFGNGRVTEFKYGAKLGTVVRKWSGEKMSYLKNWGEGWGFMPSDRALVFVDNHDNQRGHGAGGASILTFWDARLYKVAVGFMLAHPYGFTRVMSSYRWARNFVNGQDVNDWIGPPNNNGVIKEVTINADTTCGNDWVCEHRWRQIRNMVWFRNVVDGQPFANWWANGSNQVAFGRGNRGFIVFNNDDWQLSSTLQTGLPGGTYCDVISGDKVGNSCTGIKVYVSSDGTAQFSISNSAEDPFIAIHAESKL

| SMILES | IC50 (µg/ml) Lipase [1] | IC50 (µg/ml) α-amylase [2] |
| --- | --- | --- |
| COC(=O)Cc1cc2c(cc1C(=O)c1ccc(Cl)cc1Cl)OCO2 | > 400 µg/mL | 3.94 ± 2.01 µg/mL (≈ 10.7 µM) |
| O=C(O)Cc1cc2c(cc1C(=O)c1ccc(Cl)cc1Cl)OCO2 | 206.6 ± 1.96 µg/mL (≈ 585 µM) | 9.50 ± 0.56 µg/mL (≈ 26.9 µM) |
